Source: patent US20030077798

B1: truncated GSK3β polypeptide 557 (protein)
chain: MEYMPMEGGGMSGRPRTTSFAESCKPVQQPSAFGSMKVSRDKDGSKVTTVVATPGQGPDRPQEVSYTDTKVIGNGSFGVVYQAKLCDSGELVAIKKVLQDKRFKNRELQIMRKLDHCNIVRLRYFFYSSGEKKDEVYLNLVLDYVPETVYRVARHYSRAKQTLPVIYVKLYMYQLFRSLAYIHSFGICHRDIKPQNLLLDPDTAVLKLCDFGSAKQLVRGEPNVSYICSRYYRAPELIFGATDYTSSIDVWSAGCVLAELLLGQPIFPGDSGVDQLVEIIKVLGTPTREQIREMNPNYTEFKFPQIKAHPWTKVFRPRTPPEAIALCSRLLEYTPTARLTPLEACAHSFFDELRDPNVKHPNGRDTPALFNFTTQELSSNPPLATILIPPHARI
B2: GSK3β polypeptide 524 (protein)
chain: EYMPMEGGGMSGRPRTTSFAESCKPVQQPSAFGSMKVSRDKDGSKVTTVVATPGQGPDRPQEVSYTDTKVIGNGSFGVVYQAKLCDSGELVAIKKVLQDKRFKNRELQIMRKLDHCNIVRLRYFFYSSGEKKDEVYLNLVLDYVPETVYRVARHYSRAKQTLPVIYVKLYMYQLFRSLAYIHSFGICHRDIKPQNLLLDPDTAVLKLCDFGSAKQLVRGEPNVSYICSRYYRAPELIFGATDYTSSIDVWSAGCVLAELLLGQPIFPGDSGVDQLVEIIKVLGTPTREQIREMNPNYTEFKFPQIKAHPWTKVFRPRTPPEAIALCSRLLEYTPTARLTPLEACAHSFFDELRDPNVKHPNGRDTPALFNFTTQELSSNPPLATILIPPHARIQAAASTPTNATAASDANTGDRGQTNNAASASASNST

Molecular target: prephosphorylated SGSG-linked CREB peptide

Row | Protein | Mean Specific Activity cpm/µg [cpm/µg]
1 | B1 | 4.3e+07
2 | B2 | 2.2e+07
